Legend:
[1] = Hydrolytic stability in D2O/Me2SO-d6 at 0.07 M at 37 degC after 40 days by NMR analysis; set-up: scale not given: the % may be the effect or the level left; conditions: 960 h
[2] = Half life in D2O/Me2SO-d6 at 80 degC
[3] = Half life in D2O/Me2SO-d6 at 50 degC

Structure (SMILES): O=P1(N(CCCl)CCCl)NCC(Br)CO1 (stereo not given)
- Stability [1]: 50%

Structure (SMILES): O=[P@]1(N(CCCl)CCCl)OC[C@@H]2C[N@@]21
- t1/2 [2]: < 30 min

Structure (SMILES): O=[P@@]1(N(CCCl)CCCl)OC[C@@H]2C[N@@]21
- t1/2 [2]: < 30 min
- t1/2 [3]: 5 min

Structure (SMILES): O=P1(N(CCCl)CCCl)OCC2CN21 (stereo not given)
- Stability [2]: Stable

— ChEMBL document CHEMBL3227956 (J Med Chem, 1979)
